Measured values reported in patent publication US20240100120A1 (priority 2019, published 2024).

Assays:
[1] = tested on: fentanyl OIRD (integrated phrenic nerve activity, iPNA); settings: for reversal of fentanyl silencing of iPNA: 5 μg/kg i.v. after fentanyl 20 μg/kg i.v.
[2] = tested on: integrated phrenic nerve activity (iPNA); opioid OIRD
[3] = tested on: fentanyl OIRD (breaths per minute); assay: Fentanyl OIRD in spontaneously breathing anesthetized mice; settings: oxytocin 100 μg/kg i.v., fentanyl 10 μg/kg i.v.
[4] = tested on: fentanyl OIRD (breathing, inspiratory events); assay: Fentanyl OIRD in conscious, unrestrained rats (subpleural thoracic pressure telemetry)
[5] = oxytocin 80 μg/kg i.v. pretreatment, fentanyl 20 μg/kg i.v., CIHHC rats
[6] = 375 pmol/side bilateral, fentanyl 20 μg/kg i.v., CIHHC rats
[7] = co-administration fentanyl 100 μg/kg + oxytocin 150 μg/kg i.v.
[8] = freely moving rat, fentanyl 100 μg/kg i.v., oxytocin 150 μg/kg i.v. at 290 s post-fentanyl

SMILES	prevention of iPNA silencing by systemic fentanyl ([1]; carbetocin 115 μg/kg i.v., fentanyl 20 μg/kg i.v., CIHHC rats)	reversal of fentanyl silencing of iPNA [1]	efficacy of reversal at very high dose compared to lower doses ([1]; OXTN 50 μg/kg i.v.)	shape of dose-response curve for reversal of fentanyl OIRD ([1]; OXTN i.v. up to 50 μg/kg, fentanyl 20 μg/kg i.v.)	depression of iPNA burst amplitude after fentanyl [1, 5]	prevention of fentanyl-induced iPNA burst silencing [1, 5]	attenuation of iPNA inhibition by systemic fentanyl ([1]; oxytocin 80 μg/kg i.v. pretreatment, fentanyl 20 μg/kg i.v., normoxic rats)	attenuation of iPNA inhibition by systemic fentanyl, PVN oxytocin before fentanyl [2, 6]	rescue of iPNA inhibition by systemic fentanyl, PVN oxytocin after fentanyl [2, 6]	prevention of systemic fentanyl respiratory depression by PVN oxytocin ([2]; 1.25 μg/side, fentanyl 20 μg/kg i.v., PVN ibotenic acid treated rats)	reversal of arrest of breathing caused by systemic fentanyl, PVN OXT ([2]; CIHHC rat modeling SA (FIG. 8B))	reduction of fentanyl-induced OIRD by PVN oxytocin ([2]; CIHHC-treated rat (FIG. 8A))	reversal of systemic fentanyl OIRD [3]	recovery of breathing after co-administration [4, 7]	time for the same number of breaths that spanned 290 s post-fentanyl alone [4, 7] [s]	attenuation of OIRD by co-administration with fentanyl ([4]; cocktail 100 μg/kg FENT + 150 μg/kg OXTN i.v., freely moving rat)	breathing frequency after oxytocin rescue [4, 8]	rescue of lethal fentanyl OIRD [4, 8]
CC[C@H](C)[C@@H]1NC(=O)[C@H](Cc2ccc(OC)cc2)NC(=O)CCCSC[C@@H](C(=O)N2CCC[C@H]2C(=O)N[C@@H](CC(C)C)C(=O)NCC(N)=O)NC(=O)[C@H](CC(N)=O)NC(=O)[C@H](CCC(N)=O)NC1=O	similarly prevents iPNA silencing																	
NC(=O)CC[C@@H]1NC(=O)[C@H](Cc2ccccc2)NC(=O)[C@H](Cc2ccc(O)cc2)NC(=O)[C@@H](N)CSSC[C@@H](C(=O)N2CCC[C@H]2C(=O)N[C@@H](CCCN=C(N)N)C(=O)NCC(N)=O)NC(=O)[C@H](CC(N)=O)NC1=O		does not reverse fentanyl																
CC[C@H](C)[C@@H]1NC(=O)[C@H](Cc2ccc(O)cc2)NC(=O)[C@@H](N)CSSC[C@@H](C(=O)N2CCC[C@H]2C(=O)N[C@@H](CC(C)C)C(=O)NCC(N)=O)NC(=O)[C@H](CC(N)=O)NC(=O)[C@H](CCC(N)=O)NC1=O [oxytocin]		robustly reinitiates iPNA burst firing	reduced efficacy	bell-shaped response curve	30-40%	prevents fentanyl (20 μg/kg, i.v.)-induced iPNA burst silencing	attenuates iPNA inhibition	attenuate	rescue iPNA inhibition	not prevented	rapidly and completely reverses the arrest of breathing	effectively blunts fentanyl-induced OIRD	reverses systemic fentanyl OIRD	recovered nearly to baseline cadence	123	largely attenuated OIRD	recovered to exceed baseline frequency	rescued lethal fentanyl OIRD
